Experimental findings from patent publication US7854753B2, “Photokinetic delivery of biologically active substances using pulsed incoherent light” (Photokinetix, Inc., priority 2002, dated 2010) are described below.

This data set can be described thus: Franz skin diffusion cell permeation (percutaneous absorption) under ambient, natural or pulsed incoherent LED light.

As for `O=C(O)c1cccnc1` [Compound 6, Nicotinic acid], the Ctrl-TiO2/1.7 (Table 8, 405 nm series, 2% TiO2, 1.7 cps) was 1341.43. For the setting “Table 8, 405 nm series, 2% TiO2, 9.7 cps”, this compound had a Ctrl-TiO2/9.7 of 1481.09. For the same compound, the Ctrl-TiO2/24 (Table 8, 405 nm series, 2% TiO2, 24 cps) came to 0.00. The same compound showed a 405/1.7 (Table 8, 405 nm, 1.7 cps) of 0.00. Moreover, for the setting “Table 8, 405 nm, 9.7 cps”, the 405/9.7 was determined as 0.00. This compound had a 405/24 (Table 8, 405 nm, 24 cps) of 10.61.
